Results reported in paper PMC10823771, “Investigating the replacement of carboxylates with carboxamides to modulate the safety and efficacy of platinum(II) thioether cyanide scavengers” (2023).
This is a selection: effects in other tests are not listed, and their absence says nothing.

What was measured:
Sprague Dawley rats = test: Sprague Dawley toxicity model; details: dose of up to 871 µmole/m^2, after 5 days
Description: Sprague Dawley rats (Envigo and Inotiv) with weight ranges of 225–250 g were used for this study performed at the Purdue Translational Pharmacology and Clinical Veterinary Pathology Laboratories. Blood samples were drawn 1- and 5-days post-injection and processed for Comprehensive Metabolite Panel and Complete Blood Count Panel. Each sample group consisted of 3 males and 3 females unless otherwise specified in the results. At the end of the study, the animals were euthanized following the PHS Policy on the Human Care and Use of Animals, Guide for the Use and Care of Laboratory Animals. All methods were carried out in accordance with the regulations and guidelines of the Animal Welfare Act and the American Association for Accreditation of Laboratory Animal Care. The IACUC committee at Purdue University approved all experimental protocols (1405001069).
Complexes 1 and 3 were formulated in phosphate buffer. The final pH of the formulation at the time of injection was 6.5–7.0 using sodium hydroxide for pH adjustment. Complexes 2 and 4 were prepared in sodium acetate buffer (Ca^2+ and Mg^2+-free) with pH adjustments using sodium hydroxide to a target pH of 4.2. Final adjustments were made using Milli-Q water to reduce the osmolality of the solution.
Analysis was carried out using GraphPad Prism version 10.0.02. […]

Zebrafish larvae = details: exposed up to 1000 µM; ref Nath et al., 2017; cited from earlier work

Substance: Sodium tetracyanoplatinate anhydrous
- renal toxicity (Sprague Dawley rats): no significant renal toxicity
- toxicity or gross morphological signs in zebrafish (Zebrafish larvae): no signs of toxicity
